Test results as given in US11945796B2, “Substituted pyridine derivatives as SARM1 inhibitors” (Nura Bio, Inc., priority 2020, dated 2024).

Sequences of proteins named here, by UniProt entry; tags and fusion partners are left off. Residues count along the entry.
UniProt Q6SZW1, 50-724 limits assumed: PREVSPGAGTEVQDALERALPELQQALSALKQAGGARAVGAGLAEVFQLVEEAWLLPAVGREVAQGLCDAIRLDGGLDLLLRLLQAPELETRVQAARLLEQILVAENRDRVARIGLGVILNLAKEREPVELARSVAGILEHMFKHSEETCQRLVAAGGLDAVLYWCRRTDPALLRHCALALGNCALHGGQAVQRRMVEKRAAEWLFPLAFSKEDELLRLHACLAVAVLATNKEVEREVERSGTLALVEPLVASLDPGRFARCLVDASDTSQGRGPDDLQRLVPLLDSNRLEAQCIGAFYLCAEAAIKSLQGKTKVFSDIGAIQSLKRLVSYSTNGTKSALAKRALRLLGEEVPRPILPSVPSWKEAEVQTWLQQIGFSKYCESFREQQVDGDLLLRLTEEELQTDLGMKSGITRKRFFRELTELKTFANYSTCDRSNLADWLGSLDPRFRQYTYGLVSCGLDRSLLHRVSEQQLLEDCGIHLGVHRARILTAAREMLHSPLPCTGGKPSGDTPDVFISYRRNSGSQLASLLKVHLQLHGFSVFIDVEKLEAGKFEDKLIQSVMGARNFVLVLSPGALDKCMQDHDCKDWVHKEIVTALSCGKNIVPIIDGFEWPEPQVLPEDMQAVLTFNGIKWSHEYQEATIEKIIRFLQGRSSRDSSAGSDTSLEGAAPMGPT

Biological target: human SARM1(50-724) (Homo sapiens, UniProt Q6SZW1)
Assay: SARM1 NADase biochemical assay (HPLC peak areas of NAD and NAM)
Conditions: read-out: SARM1 IC50; dose-response, 1:3 serial dilution from 100 μM; 40 nM SARM1, 0.3 mM NMN, 20 μM NAD, 60 min rt

## CCC(c1ccncc1)c1ccn(CC(F)(F)F)n1 (stereo not shown)
  IC50: 1 to 10 µM
